Antibody variant affinities, Ab-14 light chain, assay B

Target peptide (SARS-CoV-2 spike, HR2 region): PDVDLGDISGINAS

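The starting antibody came from a phage panning campaign against this peptide. The variants were designed computationally from a first round of random CDR variants and then made and measured. Group labels follow the data file (En: ensemble of fine-tuned language models; GP: Gaussian process model; HC: hill climbing; Gen: genetic algorithm; Gibbs: Gibbs sampling; a sequence that several methods proposed may carry one label only). AlphaSeq pools MATa yeast showing the antibodies with MATalpha yeast showing the peptide. Binding brings cells together so that they mate, and sequencing counts the barcode pairs among the diploids. Read counts were normalised to the haploid input and turned into Kd by a linear fit to BCL2-family pairs of known affinity, for each replicate. Mating was done six times.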

Parent scFv Ab-14: VH joined to VL by three GGGGS repeats. Changes lie in the light chain CDRs alone.
VH: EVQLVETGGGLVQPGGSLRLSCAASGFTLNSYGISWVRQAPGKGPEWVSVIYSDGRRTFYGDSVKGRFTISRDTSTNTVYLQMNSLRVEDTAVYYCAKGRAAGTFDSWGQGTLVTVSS
VL: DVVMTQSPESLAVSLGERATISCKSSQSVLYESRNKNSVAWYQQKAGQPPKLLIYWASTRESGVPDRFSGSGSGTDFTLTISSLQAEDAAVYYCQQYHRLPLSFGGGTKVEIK

Variants are written as CDR1, CDR2 and CDR3 of the light chain (limits as in the source). Parent: KSSQSVLYESRNKNSVA, WASTRES, QQYHRLPLS.
Variants here have more than six changes.
Values are apparent Kd, the geometric mean of the replicates that gave a signal; lower means stronger binding.
Empty control strains, which show no peptide, gave a signal in 4% of pairings with all light chain designs; the median was 430 nM and 95% of these signals were weaker than 38 nM. No background was subtracted.

The variant MISDLTMYGSRNMNSVA, DLSTRGS, QQYHRLPLS [En_HC] gave 1.4 nM (6 of 6 replicates).
The variant ILSDSVLTLSRNRNSVA, DNSTRES, QQYDRLPLS [En_HC] gave 6.5 nM (6 of 6 replicates).
The variant KVSPSELYEDRNKNSVA, QASQRCS, QQYHRLPLS [GP_Gibbs] gave 730 pM (6 of 6 replicates).
The variant MISQLFMYGSRNINSVA, QASTRES, QQYDRLPLI [En_HC] gave 34 nM (1 of 6 replicates).
The variant RLLDQADGWTRNERNIA, DADHRGA, QQYSHLPLC [En_Gibbs] gave 420 pM (6 of 6 replicates).
The variant SLTSHEEEIEGAEASVA, EAMMLES, QQYHRLPLM [En_Gibbs] gave 48 nM (6 of 6 replicates).
The variant KITFQMMSSNAHDYSIA, QTNVYSD, QQYNRLPLD [En_Gibbs] gave 34 nM (5 of 6 replicates).
The variant KLSMTTEMEHKNRNSVA, ELVTRMA, QQYNRLPLS [En_Gen] gave 3.0 nM (6 of 6 replicates).
The variant KVSQSHPYEERNDNNVA, NASYRES, QQYHRLPLS [GP_Gibbs] gave 1.6 nM (6 of 6 replicates).
The variant KISQMVKVGATHSNSIA, EEVTRAK, QQYHRLPLS [En_Gen] gave 6.1 nM (6 of 6 replicates).
The variant NLNTYYYGGFLNTDNIA, HGNMVEA, QQYDRLPLS [En_Gibbs] gave 3.4 nM (6 of 6 replicates).
The variant MISDLTMYGMRNKNSVA, DSSTRGS, QQYHRLPLS [En_HC] gave 900 pM (6 of 6 replicates).
The variant KVSEFMRGLMQKTDSIA, DNQTRNN, QQYDRLPLS [En_Gen] gave 18 nM (6 of 6 replicates).
The variant MLSQMWGLGQHAKNSVA, QASMRFN, QQYHRLPLI [En_Gen] gave 87 nM (3 of 6 replicates).
The variant QMTFQLFEQGNRSGPIA, HESMRET, QQYAQLPLT [En_Gibbs] gave 32 nM (6 of 6 replicates).
The variant RIAEQYFEYMHHINNVA, EMSCKAY, QQYAHLPLV [En_Gibbs] gave 1.4 µM (2 of 6 replicates).
The variant KVEFSVDYESRNKNAVA, QASTREK, QQYHRLPLS [GP_Gibbs] gave 590 pM (6 of 6 replicates).
The variant KLSLSMSYSEEGTRHIA, NGSNRCH, QQYHRLPLI [En_Gibbs] gave 3.7 nM (6 of 6 replicates).
The variant KWFQSVLMESMLVNSVA, NASQRED, QQYHRLPLS [GP_Gibbs] gave 7.8 nM (6 of 6 replicates).
The variant KCAQGWLYESRNKNAVA, NASQREH, QQYHRLPLS [GP_Gibbs] gave 810 pM (6 of 6 replicates).
The variant TISQMTSLFSQTINNVA, EVSTREA, QQYDRLPLV [En_Gen] gave 2.8 nM (6 of 6 replicates).
The variant KLPQSWLYESQNSNSVA, HASQRME, QQYHRLPLS [GP_Gibbs] gave 850 pM (6 of 6 replicates).
The variant HVAQTRQEDIQNKNSVA, EGSVVIS, QQYSKLPLS [En_Gibbs] gave 11 nM (6 of 6 replicates).
The variant SMSNAQINPDNWKNSIA, DAEHVAY, QQYSRLPLT [En_Gibbs] gave 1.6 nM (6 of 6 replicates).
The variant MISQLMNMGQFAINSVA, QASERSN, QQYDRLPLI [En_Gen] gave 8.6 nM (6 of 6 replicates).
The variant TISGMANYESTNKNSVA, ELTMRGQ, QQYERLPLS [En_HC] gave 45 nM (6 of 6 replicates).
The variant HMSALTLQGMRHRNSVA, QMTTREK, QQYDHLPLS [En_Gen] gave 2.9 nM (6 of 6 replicates).
The variant KLSSITGHMQVEKNNVA, EMETREK, QQYNRLPLS [En_Gen] gave 1.1 nM (6 of 6 replicates).
The variant TISTSMRYESSLRNAIA, NAQTRES, QQYHRLPLS [En_HC] gave 3.5 nM (6 of 6 replicates).
The variant KSLISVLDEERNDNSVA, WASHRLS, QQYHRLPLS [GP_Gibbs] gave 160 nM (3 of 6 replicates).
The variant KLRSLTHIESFNKNNVA, EMTTRES, QSYDRLPLS [En_HC] gave 38 nM (6 of 6 replicates).
The variant KVPGEQGYESRNKASVA, EASTRES, QQYHRLPLS [GP_Gibbs] gave 1.3 nM (6 of 6 replicates).
The variant KLYMSTGYESYNKDSIA, DNSTRGR, QQYHRLPLS [En_HC] gave 20 nM (6 of 6 replicates).
The variant KLSMTHGMELINRNSVA, ELVTRMN, QQYNRLPLS [En_Gen] gave 11 nM (6 of 6 replicates).
The variant MVTLQLRNGHEHQNPIA, EASHRAA, QQYAHLPLG [En_Gibbs] gave 55 nM (5 of 6 replicates).
The variant HMSMLTLQGMRQRNSVA, QMTTRVN, QQYDRLPLM [En_Gen] gave 4.6 nM (6 of 6 replicates).
The variant ALSQSMDMTSRNINSVA, DLSTREN, QQYHRLPLS [En_HC] gave 1.3 nM (6 of 6 replicates).
The variant KLQFLVLYESRNKNSVA, EASTRFS, QAYHRLPLS [GP_Gibbs] gave 88 nM (6 of 6 replicates).

The authors' rule: three or more of the six replicates give a measured affinity, fewer mean a poor binder.
Values of this round are not directly comparable with the first-round values of the same sequences.

The measurements come from Li et al. 2023 (doi:10.1038/s41467-023-39022-2) through the FLAb antibody collection.